From PubChem
Shown is part of a subset that was picked to be rich in hits.
GIV-Gai inh: blocks GIV peptide binding to rat Galpha-i3. P08753. Galpha-i3/FITC-GIV peptide fluorescence polarization, 90 min; stronger effect = lower value; scaled: aluminum fluoride 0%, vehicle 100%. percent of control (FP), % (test concentration not listed). actives 0.42% (n = 210,000). AID 1224905;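 active means replicate mean at 85% of control or lower, very high polarization wells dropped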;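 further: wells of about 15 µL received 100 nL stock; the first replicate is given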
Large screens that a line does not name were inactive.

CCOC(=O)C1=C(C)N=c2s/c(=C\c3cc([N+](=O)[O-])ccc3N3CCOCC3)c(=O)n2C1c1ccc(OC)cc1 (configuration not stated)	none
CCOC(=O)C1=C(C)N=c2s/c(=C/c3cccc([N+](=O)[O-])c3O)c(=O)n2C1c1cc(OC)c(OC)c(OC)c1 (configuration not stated)	none
CCOC(=O)C1=C(C)N=c2s/c(=C/c3cc([N+](=O)[O-])ccc3N3CCN(C)CC3)c(=O)n2C1c1ccc(F)cc1 (configuration not stated)	none
CCOC(=O)C1=C(C)N=c2s/c(=C/c3cc(Br)cc([N+](=O)[O-])c3O)c(=O)n2C1c1ccccc1 (configuration not stated)	GIV-Gai inh 26
CCOC(=O)C1=C(C)N=c2s/c(=C/c3cc([N+](=O)[O-])ccc3O)c(=O)n2C1c1ccc(SC)cc1 (configuration not stated)	GIV-Gai inh 26
CCOC(=O)C1=C(C)N=c2s/c(=C/c3cccc([N+](=O)[O-])c3O)c(=O)n2C1c1ccc(OC)c(OC)c1 (configuration not stated)	none
Cc1c(Cl)cccc1NC(=S)N(Cc1ccco1)C1CCN(C(C)C)CC1	none
O=C(OCCSC1=NS(=O)(=O)c2ccccc21)c1ccccc1Br	none
COc1ccc(NS(=O)(=O)c2c(C)sc(C)c2-c2cc(C(F)(F)F)on2)cc1OC	none
O=c1oc2ccccc2cc1Cl	none
O=C1/C(=C/c2cc3ccccc3o2)CC/C1=C\c1cc2ccccc2o1	GIV-Gai inh -5.9
O=C1/C(=C\c2ccc(Br)o2)CC/C1=C/c1ccc(Br)o1	none
N#Cc1c(-c2ccco2)cc(-c2cccs2)nc1N	none
Nc1c(C(=O)c2cccs2)oc2nc(-c3cccs3)cc(-c3ccco3)c12	GIV-Gai inh -54
O=c1oc(-c2ccco2)nc2scc(-c3cccs3)c12	none
Cc1cccc(CCNC(=O)c2ccc3c(=O)n(Cc4ccc5c(c4)OCO5)c(=O)[nH]c3c2)c1	none
O=C(NCCC1=CCCCC1)C1CCN(c2ncc(-c3ccccc3)cn2)CC1	none
Cc1nn(-c2ccccc2)nc1C(=O)NCC1CC1	none
Clc1ccc(N2CCN(c3ccc(-c4nc(-c5ccccc5)no4)nn3)CC2)cc1	none
N#Cc1c(-c2ccc3c(c2)OCO3)cc(-c2ccccc2O)[nH]c1=O	none
N#Cc1c(N)oc(-c2ccc3c(c2)OCO3)c1-c1ccc2c(c1)OCO2	GIV-Gai inh -54
N#Cc1c(-c2ccc3c(c2)OCO3)cc(-c2ccc(F)cc2)nc1N	none
COc1cccc(/C=N/NC(=O)CNc2ccccc2)c1	none
NNC(=O)c1oc2nc(-c3ccccc3)cc(-c3ccccc3)c2c1N	none
COc1cccc(/C=N/NC(=O)c2oc3nc(-c4ccccc4)cc(-c4ccco4)c3c2N)c1	GIV-Gai inh -54
Cc1cc(C)cc(OCCCn2c(CN3CCOCC3)nc3ccccc32)c1	none
Cn1c(=O)c(N2CCCCC2)c2c3c(cccc31)C(=O)c1ccccc1-2	GIV-Gai inh -32
Cn1c(=O)c(Nc2ccccc2)c2c3c(cccc31)C(=O)c1ccccc1-2	none
O=C1c2ccccc2-c2c1cccc2C(=O)N1CCCCC1	none
CC1CC(C)CN(c2cc(NCCO)c3c4c(onc24)-c2ccccc2C3=O)C1 (configuration not stated)	none
CC(C)CNc1cc(NCCO)c2c3c(onc13)-c1ccccc1C2=O	GIV-Gai inh -54
CCOC(=O)C1CCN(c2cc(NCC(C)C)c3c4c(onc24)-c2ccccc2C3=O)CC1	none
CC(C)CNc1cc(Cl)c2noc3c2c1C(=O)c1ccccc1-3	GIV-Gai inh -55
CCCCNc1cc(NC2CCCCC2)c2c3c(onc13)-c1ccccc1C2=O	none
CCNc1cc(N(C)CCO)c2noc3c2c1C(=O)c1ccccc1-3	none
O=C1c2ccccc2-c2onc3c(NCCO)cc(NC4CCCCC4)c1c23	GIV-Gai inh 45
Cc1ccc(Sc2cc(Cl)c3noc4c3c2C(=O)c2ccccc2-4)cc1	none
O=C(O)CCCNc1cc(N2CCN(C3CCCCC3)CC2)c2noc3c2c1C(=O)c1ccccc1-3	none
Cc1ccc(Nc2ncnc3c2nc2n3CCCCC2)c(Br)c1	none
Cc1cc2c(cc1C)NC1(CCCCCC1)C(=NCc1ccccc1F)N2	none
O=c1cc(CN2CCSCC2)cc[nH]1	none
CCN(CC)c1ccc(/C=C2\N=C(SC)SC2=O)cc1	GIV-Gai inh -78
COc1cccc(/C=C2\N=C(SC)SC2=O)c1	none
CSC1=N/C(=C\c2ccccc2)C(=O)S1	none
COc1ccc2c(CNCCc3ccccc3Cl)c(C(=O)O)[nH]c2c1	none
CN1C(=O)/C(=C\C=C\c2ccc(N(C)C)cc2)SC1=S	none
C#CCN1C(=O)S/C(=C/C=C/c2ccc(N(C)C)cc2)C1=O	GIV-Gai inh -61
CN(C)c1ccc(/C=C2\SC(=O)N(Cc3ccccc3)C2=O)cc1	none
COCCCn1c2c(c(SCc3ccccc3F)nc1=O)CCC2	none
O=C1OC2(CCCC2)OC(=O)C1=Cc1ccc(N2CCOCC2)o1	none
Cc1ccc(/C=C2\SC(=O)N(c3ccccc3)C2=O)o1	none
O=C1S/C(=C\c2ccc(N3CCOCC3)o2)C(=O)N1c1ccccc1	GIV-Gai inh -42
O=C(CSc1nc2cc(C(=O)NCc3ccco3)ccc2c(=O)n1CC1CCCO1)c1ccccc1 (configuration not stated)	none
O=C(NCc1ccc(F)cc1)c1nccn1Cc1ccc(Cl)cc1	none
C=CCn1c(=O)/c(=C2/Sc3ccccc3N2CC)s/c1=C1\SC(=S)N(C)C1=O	none
C=CCn1c(=O)/c(=C2/Sc3ccc(OC)cc3N2CC)s/c1=C1\SC(=S)N(CCCC)C1=O	GIV-Gai inh 42
COc1ccc2c(c1)N(C)/C(=C1/SC(=S)N(Cc3ccccc3)C1=O)S2	none
CC(=O)N1CCc2cc(Br)c(S(=O)(=O)n3cc4c(=O)n(C)c(=O)n(C)c4n3)cc21	none
CCNc1ncnc2onc(-c3cccc(Cl)c3)c12	none
Cc1ccc(/C(O)=C2\C(=O)C(=O)N(c3nncs3)C2c2ccc(C)cc2)cc1 (configuration not stated)	none
O=C(NCCn1c(-c2ccccc2)nc2cccnc21)c1ccccc1F	none
Nc1nnnn1N=Cc1ccc(-c2ccc3c(c2)COC3=O)o1	GIV-Gai inh 36
N#CC(C#N)=Cc1ccc(-c2ccc3c(c2)COC3=O)o1	none
CC1=NN(c2ccc(S(N)(=O)=O)cc2)C(=O)/C1=C/c1ccc(-c2ccc3c(c2)C(=O)OC3)o1	none
CCCN(CCC)C(=O)Cn1ncc2c3ccccc3n(C)c2c1=O	none
Cc1csc(-c2cc(S(=O)(=O)N3CCN(Cc4ccc5c(c4)OCO5)CC3)c(C)s2)n1	GIV-Gai inh -0.1
Cc1cc(C)c(S(=O)(=O)N2CCN(Cc3ccc4c(c3)OCO4)CC2)cc1C	none
O=S(=O)(c1cc(Cl)sc1Cl)N1CCN(Cc2ccc3c(c2)OCO3)CC1	none
CC1CC(N(C(=O)c2ccc(Cl)cc2)c2ccccc2)c2ccccc2N1C(=O)c1ccc(Cl)cc1 (configuration not stated)	none
Cn1cc(NC(=O)Nc2ccccc2F)c2ccccc2c1=O	none
CCOc1ccc(NC(=O)Cn2c(Nc3ccc(OCC)cc3)nc3c2c(=O)[nH]c(=O)n3C)cc1	none
CCOC(=O)C1(C#N)C(=O)C(C#N)=C2CCCCC2C1c1ccccc1 (configuration not stated)	GIV-Gai inh -31
CCOC(=O)N1CC=C2C(C#N)=C(N)C(C#N)(C#N)C(c3ccc(-c4ccccc4)cc3)C2C1 (configuration not stated)	none
CCOC(=O)C1=C(C)NC2=C(C(=O)CCC2)C1c1ccccc1 (configuration not stated)	none
